Source: PubChem BioAssay AID2546 (National Center for Advancing Translational Sciences (NCATS), 2010)
The entries are a selection whose mix differs from that of the whole data set. Records with an inconclusive call do not appear. Activity calls are given as the source filed them. Calls come from the whole dose curve; as a rule, active = well fitted inhibition curve with a large enough effect; inconclusive = small, poorly fitted or top-dose-only effect, or effect the other way; inactive = flat fitted curve, though single readings scatter.

Assay: VP16 counterscreen qHTS for inhibitors of ROR gamma transcriptional activity;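 note: Gal4-VP16 expression switched on by copper sulfate through the metallothionein promoter; nearly all actives have a fitted effect of over 50% in size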
Conditions: Drosophila S2 Gal4-VP16 UAS-luciferase, luminescence, 20 h; series mostly up to 53.6 µM; activity, negative = inhibition: at the top concentration
% is set by controls: 0 for no effect and ±100 for the full control effect; potency is the fitted concentration of half-maximal effect.

Row | SMILES | activity, negative = inhibition | Potency
1 | Cc1cccc(OCC(=O)OC2CN3CCC2CC3)c1 (centres undefined) | inactive: -1.07% | 
2 | O=[As](O)(c1cccc(O)c1)c1cccc(O)c1 | inactive: 1.79% | 
3 | O=C(OC1CN2CCC1CC2)c1ccc(Cl)cc1 (centres undefined) | inactive: -6.99% | 
4 | O=[As](O)(O)c1cccnc1 | inactive: -3.84% | 
5 | COc1cc(C(=O)NCC2(N3CCOCC3)CCCCC2)cc(Cl)c1OC(C)C | inactive: 2.74% | 
6 | CS(=O)(=O)c1ccc(Cl)c(NC(=O)COC(=O)C(O)(c2ccccc2)c2ccccc2)c1 | inactive: -2.15% | 
7 | COc1cc(C2NCCC3(OCCO3)C2(C)C)cc(OC)c1OC (centres undefined) | inactive: -0.976% | 
8 | CCOP(=O)(Nc1cccc2ccccc12)OCC | inactive: 8.26% | 
9 | Nc1cccc2c([As](=O)(O)O)cccc12 | inactive: 2.03% | 
10 | CCCOP(=S)(Nc1nc(N)cc(=O)[nH]1)OCCC | inactive: -3.34% | 
11 | O=C(O)COc1ccc([As](=O)(O)O)cc1[N+](=O)[O-] | inactive: -16.3% | 
12 | Nc1ccccc1[As](=O)(O)c1ccccc1 | inactive: -1.94% | 
13 | CCOP1(=S)c2c(C)nn(CCC#N)c2N=C(c2ccccc2F)N1C (centres undefined) | inactive: 13.4% | 
14 | O=P(Nc1nccs1)(Oc1ccccc1)Oc1ccccc1 | inactive: -7.43% | 
15 | O=P(Nc1nccs1)(c1ccccc1)c1nc2ccccc2s1 (centres undefined) |  | active: 7.94 µM
16 | CS(=O)(=O)c1cc([N+](=O)[O-])c2no[n+]([O-])c2c1 |  | active: 15.8 µM
17 | CCOP1(=S)c2c(C)nn(CCC#N)c2N=C(c2ccc(F)cc2)N1C (centres undefined) | inactive: 9.41% | 
18 | CN(C(=O)Cc1ccccc1)[C@@H]1CC[C@]2(CCCO2)C[C@H]1N1CCCC1 | inactive: -7.13% | 
19 | O=[N+]([O-])c1ccc2c(c1)nnn2O | inactive: 0.952% | 
20 | NC(=O)Nc1ccc([As](=O)(O)O)cc1 |  | inactive
21 | CN(C)C1(CNC(=O)c2ccc(S(C)(=O)=O)cc2)CCCCC1 | inactive: -3.73% | 
22 | O=C(/C=C/c1ccccc1)OC1CN2CCC1CC2 (centres undefined) | inactive: -0.276% | 

Row | SMILES | activity, negative = inhibition | Potency
23 | Cc1nn(-c2ccccc2)c2c1P(=O)(N1CCOCC1)N(C)C(c1ccccc1)=N2 (centres undefined) | inactive: -3.4% | 
24 | Cc1ccc(C(=O)OC2CN3CCC2CC3)cc1 (centres undefined) | inactive: -2.09% | 
25 | Nc1cccc([As](=O)(O)c2ccccc2)c1 | inactive: 3.11% | 
26 | O=[As](O)(c1cccs1)c1cccs1 | inactive: 5.2% | 
27 | Cc1ccc(OCC(=O)OC2CN3CCC2CC3)cc1 (centres undefined) | inactive: -15.5% | 
28 | O=P1(Nc2ccc(Br)cn2)COc2ccccc2OC1 | inactive: 6.84% | 
29 | Clc1n[nH]nc1-c1nn[nH][15n]1 | inactive: -7.36% | 
30 | CCC1=CC2Cc3nc4ccc(Cl)cc4c(N)c3C(C1)C2 (centres undefined) | inactive: -22.1% | 
31 | O=P1(Nc2ccccn2)COc2ccccc2OC1 | inactive: 0.397% | 
32 | CCOP(=O)(NC(=NC(C)c1ccccc1)NC(C)c1ccccc1)OCC (centres undefined) | inactive: 8.75% | 
33 | CCOP(=O)(Nc1ccc(C)cn1)OCC | inactive: -3.07% | 
34 | CN(C(=O)Cc1ccc(Cl)c(Cl)c1)[C@@H]1CCCC[C@H]1N1CCCC1 | inactive: -2.82% | 
35 | CC(C)/C=N\N=C(\N)N[N+](=O)[O-] | inactive: -0.433% | 
36 | O=[As](O)(c1ccccc1Br)c1ccccc1Br | inactive: -2.1% | 
37 | O=C(COc1ccccc1)OC1CN2CCC1CC2 (centres undefined) | inactive: -0.481% | 
38 | O=C(Nc1ccncc1[N+](=O)[O-])c1ccc([N+](=O)[O-])cc1[N+](=O)[O-] | inactive: -10.7% | 
39 | COP1(=S)c2c(C)nn(CCC#N)c2N=C(c2ccc(F)cc2)N1C (centres undefined) | inactive: -5.27% | 
40 | O=C(OC1CN2CCC1CC2)c1cccc([N+](=O)[O-])c1 (centres undefined) | inactive: -7.54% | 
41 | CCOC(=O)c1ccc(NC(=O)C(C)(CCl)SC)cc1 (centres undefined) | inactive: 6.37% | 
42 | CCCCOc1ccc(C(=O)NCC2(N3CCCCC3)CCCCC2)cc1OC | inactive: -2.16% | 
43 | CCOC(=O)Nc1ccc([As](=O)(O)O)c(O)c1 | inactive: -0.181% | 
44 | Cc1cc(SC(NC=O)C(Cl)(Cl)Cl)ncn1 (centres undefined) | inactive: -6.57% | 

Row | SMILES | activity, negative = inhibition | Potency
45 | O=P(Nc1ccccn1)(c1cccc2ccccc12)c1cccc2ccccc12 | inactive: 1.88% [at 10 µM] | 
46 | CN(N=O)C(=N)N[N+](=O)[O-] | inactive: -14.5% | 
47 | O=[N+]([O-])c1ccc(Nc2ccc(Oc3ccc([N+](=O)[O-])cc3[N+](=O)[O-])cc2)c([N+](=O)[O-])c1 | inactive: -0.0443% | 
48 | CCOC(=O)Nc1cccc([As](=O)(O)O)c1 | inactive: -1.51% | 
49 | Cc1ccc(OP(=O)(Nc2ccc([N+](=O)[O-])cn2)Oc2ccc(C)cc2)cc1 | inactive: 4.84% | 
50 | Cc1ccc2nc3c(c(C)c2c1)CC(C(Cl)Cl)S3 (centres undefined) | inactive: 29.5% | 
51 | C[As](=O)(O)c1cccc(C(=O)O)c1 | inactive: -4.63% | 
52 | CC(C)NC(=O)NP(=O)(Oc1ccccc1)Oc1ccccc1 | inactive: -22.7% | 
53 | CCN(CC)C(=S)SC(NC=O)C(Cl)(Cl)Cl (centres undefined) | inactive: 9.11% | 
54 | O=[N+]([O-])c1cc([N+](=O)[O-])c(-c2ccn[nH]2)s1 |  | active: 12.6 µM
55 | ClCCSc1nnc(-c2cccnc2)o1 | inactive: -3.62% | 
56 | CC(C)c1ccc(OP(=O)(Nc2ccccn2)Oc2ccccc2F)cc1 (centres undefined) | inactive: 1.44% | 
57 | COc1ccc2nc(NP(=O)(c3ccccc3)c3ccccc3)sc2c1 | inactive: -15% | 
58 | COc1cc(I)ccc1[As](=O)(O)O | inactive: -7.89% | 
59 | Cc1c2c(nc3ccccc13)SC(C(Cl)Cl)C2 (centres undefined) | inactive: -5.04% | 
60 | O=C(OC1CN2CCC1CC2)C12CC3CC(CC(C3)C1)C2 (centres undefined) | inactive: 2.8% | 
61 | Cc1cc(=O)[nH]c(N[N+](=O)[O-])n1 | inactive: -5.13% | 
62 | COc1ccc(N/C(=N/P(=O)(N2CCOCC2)N2CCOCC2)N2CCOCC2)cc1 | inactive: -5.57% | 
63 | CN1CCCC(OC(=O)C(c2ccccc2)c2ccccc2)C1 (centres undefined) | inactive: -13.9% | 
64 | Clc1ccc(Cl)c(NC2=NCC(CBr)S2)c1 (centres undefined) | inactive: -2.82% | 
